# The entries are a selection whose mix differs from that of the whole data set. Results filed as inconclusive are left out. Activity calls are given as the source filed them. Calls follow the shape of the dose curve; as a rule, active = well fitted cell-killing curve with a large enough effect; inconclusive = small, poorly fitted or top-dose-only effect, or effect the other way; inactive = flat fitted curve, though single readings scatter.
# Test: qHTS for induction of synthetic lethality in tumor cells producing 2HG: qHTS for the HT-1080-NT fibrosarcoma cell line;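 also: NT is the 2HG producing partner of a matched IDH1 knockdown line; 0% = DMSO-treated cells and -100% = media-only wells without cells; nearly all actives have a fitted effect of over 55% in size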
# Details: HT-1080-NT fibrosarcoma viability, CellTiter-Glo ATP luminescence, 48 h; at 46.1 µM (top of the series) unless noted
row,Structure (SMILES),"activity, negative = less viability"
1,O=C(O)C1(Nc2ccccc2)CCN(Cc2ccccc2)CC1,inactive: 2.54%
2,NN(c1ccccc1)C1CCN(CCc2ccccc2)CC1,inactive: 0.0808%
3,CC(C)(C)OC(=O)N1CCC(Nc2ccccc2)CC1,inactive: 18.3%
4,CCCOc1ccc(C(=O)NCC2(N(C)C)CCCCC2)cc1,inactive: -4.16%
5,CN1CCC(Nc2ccc(F)c(Cl)c2)CC1,inactive: -8.6%
6,CCOc1ncccc1C(=O)NCC1(N2CCOCC2)CCCCC1,inactive: 8.16%
7,CN1CCC(Nc2ccc(Cl)cc2)CC1,inactive: -1.98%
8,COc1cc(OC)cc(C(=O)NCC2(N3CCOCC3)CCCCC2)c1,inactive: 2.02%
9,COc1cccc(C(=O)N(c2cc(C)cc(C)c2)C2CCN(C(=O)OC(C)(C)C)CC2)c1,inactive: 10.7%
10,CCC(CO)(C(=O)OC1CN2CCC1CC2)c1ccccc1 (configuration not stated),inactive: 1.37%
11,Fc1ccccc1NC1CCN(Cc2ccccc2)CC1,inactive: 0%
12,Cc1ccc(C(=O)NCC2(N3CCCCC3)CCCCC2)o1,inactive: 8.01%
13,Cc1ccc(NC2(C#N)CCN(Cc3ccccc3)CC2)cc1,inactive: 0.728%
14,CCC(c1nnnn1C1CCCCC1)N1CCC(n2c(=O)[nH]c3ccccc32)CC1 (configuration not stated),inactive: 1.52%
15,CC(=O)N(c1ccccc1)C1CCNCC1,inactive: 15%
16,O=c1[nH]c2ccccc2n1C1CCN(C(c2ccnc3ccccc23)c2nnnn2C2CCCCC2)CC1 (configuration not stated),inactive: -22%
17,COc1cc(OC)cc(C(=O)NCC2(N3CCCCC3)CCCCC2)c1,inactive: 3.61%
18,Cn1c(=O)[nH]cc(N(CCCl)CCCl)c1=O,inactive: 0.0667%
19,CN(C)c1ccc(C(=O)NCC2(N3CCCCC3)CCCCC2)cc1,inactive: 5.8%
20,O=C(NCC1(N2CCCCC2)CCCCC1)c1ccco1,inactive: -1.9%
21,CC(C)(C)n1nnnc1C(c1ccnc2ccccc12)N1CCC(n2c(=O)[nH]c3ccccc32)CC1 (configuration not stated),inactive: -24.9%
22,CCN1CCC(Nc2cccc(F)c2)CC1,inactive: 19.7%
23,COc1ccc(C(c2nnnn2C2CCCCC2)N2CCC(n3c(=O)[nH]c4ccccc43)CC2)cc1 (configuration not stated),inactive: 23.2%
24,Cc1ccccc1NC1(C#N)CCN(Cc2ccccc2)CC1,inactive: 13.4%
25,CCOC(=O)C(CC)C1=NC(C)(C)Cc2ccccc21.O=[N+]([O-])c1cc([N+](=O)[O-])c(O)c([N+](=O)[O-])c1 (configuration not stated),inactive: 7.77%
26,N#Cc1ccc(C(=O)NCC2(N3CCCCC3)CCCCC2)cc1,inactive: 2.19%
27,CC(C)(C)OC(=O)N1CCC(N(C(=O)c2ccccc2)c2ccc(Cl)cc2)CC1,inactive: -15.7%

# Reference: PubChem BioAssay AID686970 (National Center for Advancing Translational Sciences (NCATS), 2013)
